Calls of active or inactive are those of the source. The calls are words filed in the database; no cut-off is given here.
Key:
Escherichia coli = assay: Inhibition of Escherichia coli OGDHc E1 subunit assessed as DCPIP reduction at 250 uM preincubated for 60 mins followed by pyruvate addition using 50 uM ThDP as substrate by microplate reader analysis
Plasmodium falciparum = assay: Antiplasmodial activity against Plasmodium falciparum 3D7 infected in human erythrocyte assessed as inhibition of parasite proliferation at 0.1 to 1000 uM in thiamine free medium by SYBR-Safe assay; format: functional, organism-based; settings: dose 0.1-1000 µM
Catharanthus roseus = assay: Inhibition of Catharanthus roseus DXPS at 20 uM relative to control

| SMILES | inhibition (Escherichia coli) | Activity (Plasmodium falciparum) | inhibition (Catharanthus roseus) |
| --- | --- | --- | --- |
| CC(C)(C(=O)O)C(=O)N(O)Cc1ccccc1Cl | < 5% | Active | – |
| CC1(C)C(=O)ON(Cc2ccccc2Cl)C1=O [KETOCLOMAZONE] | < 5% | Active | 40% |

From ChEMBL document CHEMBL5532701 (RSC Med Chem, 2024)
